KDM4E inh – inhibitors of human JMJD2E histone demethylase; AID 2147; B2RXH2; 230,000 compounds, 1.6% hits; Potency, µM (highest dose often 57.1 µM), inactives show top-dose activity change, negative = inhibition, actives largely listed as inhibitors; JMJD2E catalytic domain, FDH-coupled NADH fluorescence (FDH is formaldehyde dehydrogenase);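 note: potency is the fitted concentration of half-maximal effect; 0% = wells with enzyme and -100% = buffer wells without enzyme; nearly all actives have a fitted effect of over 50% in size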
miR-21 reporter – miR-21 reporter, rising signal; HeLa miR-21 FLuc reporter, luciferase, 48 h; Potency, µM (titrated, usually from 38.3 µM), for the others: at the top dose reporter change, positive = more light; 340,000 tested, under 10 active; AID 2288; active = well fitted rising curve with a large enough effect; inconclusive = small, poorly fitted or top-dose-only effect; inactive = no such curve, though single readings can be large or run the other way;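 also: % of control where 0% means no effect; miR-21 action dims this reporter so a rising signal means less miR-21 action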
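HeLa cells endogenously expressing miR-21, stably carrying CMV-driven firefly luciferase with a downstream miR-21 binding site, 2000 cells/well. Titrations up to approximately 40 uM, 48 hours; luciferase luminescence read.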
ALDH1A1 inh – blocks purified human ALDH1A1 activity. AID 1030. P00352. Potency, µM (titrated, usually from 75.3 µM), for the others: at the top dose activity, negative = inhibition, actives largely listed as inhibitors. Purified ALDH1A1, NADH fluorescence, propionaldehyde substrate. 220,000 compounds, 7.3% hits; active = well fitted inhibition curve with a large enough effect, not every such curve was filed as active; inconclusive = small, poorly fitted or top-dose-only effect, or another doubt; inactive = no such curve, though single readings can be large or run the other way;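 note: potency is the fitted concentration of half-maximal effect; plate controls were no enzyme wells and a reference inhibitor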
G9a block – G9a (human) methyltransferase inhibition; 350,000 compounds, 8.8% hits; G9a H3K9 monomethylation, AlphaScreen, 2 h; Potency, µM (top dose mostly 102 µM), for inactives: at the highest dose activity, negative = inhibition, actives largely listed as inhibitors; AID 504332; Q96KQ7; note: potency is the fitted concentration of half-maximal effect; % is set by controls: 0 for no effect and ±100 for the full control effect; nearly all actives have a fitted effect of over 75% in size
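Quantitative HTS format: methyltransferase activity on a biotin-tagged H3K9 peptide is measured by AlphaScreen, using a rabbit anti-monomethyl-H3K9 antibody with streptavidin donor and anti-IgG acceptor beads. Final levels are 20 nM enzyme, 500 nM peptide, 20 uM SAM; 2 h RT.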
Lamin A splicing – modulators of lamin A splicing | HeLa LMNA splicing GFP/RFP minigene ratio, 48 h | Potency, µM (series often up to 46.1 µM), for the others: at the top dose ratio change, negative = inhibition, hits mostly inhibitors | 200,000 compounds, 0.01% hits | AID 1487; active = well fitted inhibition curve with a large enough effect in the signal ratio, with a control signal flat, not every such curve was filed as active; inconclusive = small, poorly fitted or top-dose-only effect, or effect the other way, or a change in a side signal; the % refers to the signal ratio; note: potency is the fitted concentration of half-maximal effect; % is set by controls: 0 for no effect and ±100 for the full control effect
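Read-out is the ratio of GFP to DsRed2 object intensity, acquired by 488 nm laser-scanning cytometry on HeLa lamin A-EGFP minigene reporter cells. Compound incubation 48 hrs at 37 °C in Opti-MEM with 2% FBS; DMSO 0.5% final.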
Sfp inh – Sfp phosphopantetheinyl transferase inhibition; 310,000 tested, 3.5% active; Potency, µM, inactives show max response, negative = inhibition, hits mostly inhibitors; AID 1490; Q9F4F7; Biochemical Sfp PPTase activity, qHTS; active = well fitted inhibition curve with a large enough effect; inconclusive = small, poorly fitted or top-dose-only effect, or another doubt; inactive = no such curve, though single readings can be large or run the other way;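 also: the enzyme is Sfp with the accession as filed and its product quenches rhodamine fluorescence; potency is read from the fitted curve at half-maximal effect; 0% = enzyme reaction without inhibitor and -100% = no enzyme wells; top concentration of the series not given in the record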
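Compounds were incubated with enzyme (final 15 nM) for 15 min at room temperature before substrate addition started the reaction. Fluorescence at 525 nm excitation, 598 nm emission was recorded immediately and after 30 minutes.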
Starred values were filed as active, the others as inactive; ? = inconclusive; . = no result; [ ] = remark or other dose. Hits are enriched below; roughly 13% of the tested compounds scored in any of these assays. Unless noted, calls come from the whole dose curve; as a rule, active = well fitted curve in the direction sought with a large enough effect; inconclusive = small, poorly fitted or top-dose-only effect, or another doubt; inactive = no such curve, though single readings can be large; an effect the other way counts as inactive or inconclusive.

SMILES | KDM4E inh | miR-21 reporter | ALDH1A1 inh | G9a block | Lamin A splicing | Sfp inh
CC(=O)NC(=O)Nc1sc(=S)n(C)c1C | 0% | 1% | -1% | ? | 5% | -8%
Cc1nnc(NC(=O)Oc2ccccc2)s1 | -3% | -1% | 9% | 37% | -3% | -6%
Cc1c(NC(=O)Oc2ccccc2)sc(=S)n1C | 1% | -3% | ? | 45µM* | 7% | 56µM*
Cc1ccc(NC(=O)Nc2sc(=S)n(C)c2C)cc1 | -9% | -16% | -13% | 25µM* | -5% | 56µM*
C[C@@]1(C(NC(=O)Cc2ccc(C(F)(F)F)cc2)c2ccc(-c3ccccc3)cc2)C[C@H]1C1CCCCC1 (stereo partly drawn) | 26% | . | 11% | . | . | 28%
CCOC(=O)/C(C#N)=C/c1ccc(OC(=O)c2ccccn2)cc1 | ? | -7% | 8.9µM* | 4.5µM* | -17% | 50µM*
CCOc1ccc(/C=C(\C#N)C(=O)Nc2ccccn2)cc1 | . | -1% | . | 10% | . | 20%
CCOC(=O)/C(C#N)=C/c1ccc(SC)cc1 | ? | 5% | 18µM* | -3%[59 µM] | . | ?
COc1ccccc1NC(=O)C1=C(C)Nc2c(C(=O)Nc3cccc(C)c3)cnn2C1c1ccccc1Cl (stereo not drawn) | . | 4% | . | -16%[59 µM] | 14%[46 µM] | .
COCCCNc1nc2c(c(=O)n(Cc3ccccc3)c(=O)n2C)n1C | . | 0% | . | 6%[59 µM] | . | .
O=C(O)[C@H](Cc1ccccc1)NC(=O)N1CCOCC1 | 3% | 1% | 13% | 50µM* | 5% | 9%
O=C(NC(Cc1ccccc1)C(=O)NC(Cc1ccccc1)C(=O)O)c1ccccc1 (stereo not drawn) | ? | 0% | 18% | 28µM* | . | -4%
O=C(O)[C@H](Cc1ccccc1)NC(=O)N1CCCCCC1 | . | 0% | . | 12% | . | 10%
Oc1c(C(c2ccc(Cl)cc2)N2CCC3(CC2)OCCO3)sc2nc(-c3ccco3)nn12 (stereo not drawn) | . | -7% | . | -48%[59 µM] | 23%[46 µM] | .
Cc1ccc(OCC(=O)NNC(=O)c2cccnc2)cc1 | 0% | -2% | 1% | 79µM* | 5% | 9%
O=C(NCCOC(=O)C1COc2ccccc2O1)C1COc2ccccc2O1 (stereo not drawn) | -5% | -8% | -3% | ? | 11% | 13%
O=C(NCCOC(=O)C1COc2ccccc2O1)c1cccnc1 (stereo not drawn) | -6% | -3% | 4% | 50µM* | 1% | 22%
Cc1ccc(C(=O)NCCOc2cccc(C)c2)cc1 | 3% | -57% | 6% | 31% | 11%[46 µM] | 9%
COc1cccc(C(=O)NCCOc2cc(C)cc(C)c2)c1 | -7% | -2% | 16µM* | 21%[59 µM] | -7% | -11%
CSc1ccccc1C(=O)NCCOc1cccc(C)c1 | 3% | -12% | 0% | 45µM* | -9%[46 µM] | 13%

In another format: results already given
canonical_smiles	KDM4E inh	miR-21 reporter	ALDH1A1 inh	G9a block	Lamin A splicing	Sfp inh
Cc1ccc(OCC(=O)NNC(=O)c2cccnc2)cc1	0%	-2%	1%	79µM*	5%	9%
O=C(NCCOC(=O)C1COc2ccccc2O1)C1COc2ccccc2O1 (stereo not drawn)	-5%	-8%	-3%	?	11%	13%

The listing continues:
SMILES | KDM4E inh | miR-21 reporter | ALDH1A1 inh | G9a block | Lamin A splicing | Sfp inh
CCOc1ccc(C(=O)NCCc2sc3nc(-c4ccc(Cl)cc4)nn3c2C)cc1OCC | . | -12% | . | -15%[59 µM] | ? | .
Cc1cccc(NC(=O)c2ccc(C(=O)Nc3cccc(C)c3C)cc2)c1C | . | -1% | . | -28%[59 µM] | . | .
COc1ccc(/C(C)=N/NC(=O)CNC(=O)c2cccnc2)cc1OC | . | -3% | . | ? | . | 9%
COc1cccc(N2CC(C)Cn3c2nc2c3c(=O)[nH]c(=O)n2C)c1 (stereo not drawn) | . | -4% | . | 22% | . | 21%
COc1cccc(C(=O)OCCNC(=O)c2cccnc2)c1 | . | 1% | . | 50µM* | . | 6%
COc1ccc(OCC(=O)OCCNC(=O)c2cccnc2)cc1 | -20% | -5% | -10% | 32µM* | -2% | -16%
CCc1ccc(NC(=O)c2ccc3[nH]c(C)c(C)c3c2)cc1 | . | -33% | . | -17%[59 µM] | . | .
CN(C)CCC(=O)c1ccc(F)cc1 | 0% | 7% | . | ? | . | 13%
CCN(CC)CCC(=O)c1ccc(F)cc1 | 2% | 1% | 1.1µM* | 40µM* | . | -6%
CCOC(=O)c1c(-c2ccc(-c3ccccc3)cc2)csc1NC(=O)CNCCN(C)C | . | ? | . | 50µM* | . | 40µM*
COC(=O)c1c(-c2ccc(C)cc2)csc1NC(=S)NC(=O)c1cc(OC)cc(OC)c1 | -2% | -2% | 20µM* | 25µM* | -8% | ?
CCNC(=S)Nc1scc(-c2ccccc2)c1C(=O)OCC | -16% | -9% | 28µM* | ? | ? | -22%
COc1ccc(S(=O)(=O)N2CCC(N3CCN(Cc4ccccc4)C(=O)C3=O)CC2)cc1 | . | 6% | . | -3%[59 µM] | . | .
CC(C)c1ccc(Nc2nc(Cl)nc(Cl)n2)cc1 | . | 1% | . | 40µM* | . | -5%
CNc1nc(Cl)nc(Nc2ccccc2)n1 | -6% | -45% | 8% | -39% | ? | 17%
O=C(c1ccc(Cl)cc1)N1CCC(O)(CSc2ccc(Cl)cc2)CC1 | 0% | 11% | 16µM* | 13% | 10% | -6%
O=C(c1ccc(Cl)cc1)N1CCC(O)(CSc2ccccc2)CC1 | 6% | 0% | 1.4µM* | 12%[59 µM] | ? | 2%
COc1cccc(SCC2(O)CCN(C(=O)c3ccc(Cl)cc3)CC2)c1 | 3% | -1% | ? | 14%[59 µM] | 18%[46 µM] | -13%
COc1ccc(CC(=O)Oc2ccccc2C)cc1S(=O)(=O)N1CCOCC1 | . | . | . | -28% | . | .
COc1ccc(CC(=O)Nc2nc3ccccc3s2)cc1S(=O)(=O)N1CCOCC1 | 6% | -4% | 13% | 11% | -8% | 4%

Reprinted from the part before: two compounds, then new ones.
SMILES | KDM4E inh | miR-21 reporter | ALDH1A1 inh | G9a block | Lamin A splicing | Sfp inh
COc1ccc(CC(=O)Oc2ccccc2C)cc1S(=O)(=O)N1CCOCC1 | . | . | . | -28% | . | .
COc1ccc(CC(=O)Nc2nc3ccccc3s2)cc1S(=O)(=O)N1CCOCC1 | 6% | -4% | 13% | 11% | -8% | 4%
COc1ccc(CC(=O)Oc2ccc(Br)cc2F)cc1S(=O)(=O)N1CCOCC1 | . | . | . | 50µM* | . | .
COc1ccc(CC(=O)Nc2nc3ccc(F)cc3s2)cc1S(=O)(=O)N1CCOCC1 | -4% | -7% | 20µM* | ? | -8% | -1%
Cc1ccc(C2C(C#N)=C(N)Oc3n[nH]c(-c4cccs4)c32)s1 (stereo not drawn) | -15% | -5% | 0% | 50µM* | 9% | 18%
COc1ccc(CCN2C(=NC(=O)C(C)C)SC3CS(=O)(=O)CC32)cc1OC (stereo not drawn) | 3% | -5% | . | -4% | . | 11%
CCOC(=O)c1sc(NCc2ccco2)c(-c2nc3ccccc3s2)c1N | ? | -29% | ? | -14%[59 µM] | 2% | ?
CCNc1sc(C(=O)c2cccs2)c(N)c1-c1nc2ccccc2s1 | -5% | 0% | ? | 10µM* | -10% | 18µM*
C=CCNc1sc(C(=O)c2ccccc2)c(N)c1-c1nc2ccccc2s1 | -2% | -5% | 2% | 22µM* | ? | 20µM*
COCCNC(=S)N(CCc1c(C)[nH]c2ccccc12)Cc1ccco1 | 3% | 12% | 2% | 50µM* | . | 17%
CCNC(=S)N(CCc1c(C)[nH]c2ccc(Cl)cc12)Cc1ccco1 | 8% | ? | 0% | ? | 7%[9.22 µM] | 21%

Source: PubChem (National Center for Advancing Translational Sciences (NCATS))
